Here are results for 76 compounds from PubChem BioAssay AID602229 (The Scripps Research Institute Molecular Screening Center, 2012).

Chains of the proteins cited; added tags and fusions are not shown. Lines headed by an entry give the natural chain unless they say otherwise; changes in a name come on top.
UniProt Q9Y5X4: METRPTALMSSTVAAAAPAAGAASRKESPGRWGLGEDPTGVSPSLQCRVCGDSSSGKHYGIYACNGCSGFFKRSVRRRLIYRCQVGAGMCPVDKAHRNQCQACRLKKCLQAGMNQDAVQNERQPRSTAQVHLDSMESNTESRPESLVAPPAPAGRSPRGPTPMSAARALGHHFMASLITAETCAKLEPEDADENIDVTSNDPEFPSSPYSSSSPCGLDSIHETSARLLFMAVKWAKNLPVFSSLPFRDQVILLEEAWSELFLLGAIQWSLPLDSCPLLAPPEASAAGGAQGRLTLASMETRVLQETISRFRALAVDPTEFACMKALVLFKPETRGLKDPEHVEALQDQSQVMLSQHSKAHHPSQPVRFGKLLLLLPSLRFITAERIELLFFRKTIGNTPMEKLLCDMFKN

The list shows a part of the results, in another mix than the full data. The source made the active and inactive calls.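 How the source made its calls: active means inhibition above the mean of all tested compounds plus 3 SD (cut at about 70% in these data); inactive means the rest.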

This experiment addresses Photoreceptor-specific nuclear receptor (Homo sapiens) (UniProt Q9Y5X4). Nature of the experiment: NCOR release from NR2E3 in cells – cell-based, luminescence, CHO-S, Gal4-NCOR/VP16-NR2E3, primary screen (AID 602229).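 Further: 0% = DMSO with NR2E3 transfected cells and 100% = cells lacking NR2E3 construct; higher means lower luciferase signal from less NR2E3 corepressor binding.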 To be noted: CHO-S Gal4-NCOR/VP16-NR2E3 two-hybrid, luciferase; at 3.98 µM; active compounds read high.
On to `CCN(N=Nc1nonc1N)c1nonc1N`, for which the inhibition of corepressor binding is inactive: -16.5%.

Regarding `CN1CCCC(OC(=O)C(c2ccccc2)c2ccccc2)C1` (stereo unspecified), the inhibition of corepressor binding was inactive: -10.3%.

Regarding `Clc1ccc(Cl)c(NC2=NCC(CBr)S2)c1` (stereo unspecified), the inhibition of corepressor binding was inactive: -10.6%.

Turning to `Cc1ccc(OP(=O)(Nc2nccs2)Oc2ccc(C)cc2)cc1`, the inhibition of corepressor binding is inactive: 16.5%.

For the compound `COc1ccccc1OP(=O)(Nc1ccc(C)cn1)Oc1ccccc1OC`, the inhibition of corepressor binding was inactive: -8.95%.

Consider `Cc1ccc(N/C(=N/P(=O)(N2CCOCC2)N2CCOCC2)N2CCOCC2)cc1`, for which the inhibition of corepressor binding was inactive: 6.21%.

As for `CN(C(=O)Cc1ccc(Cl)c(Cl)c1)[C@H]1CCCC[C@H]1N1CCCC1`, the inhibition of corepressor binding is inactive: -9.72%.

As for `NC(=O)c1cc([N+](=O)[O-])cc([N+](=O)[O-])c1N`, the inhibition of corepressor binding is inactive: -16.7%.

Take `O=[N+]([O-])C1C(O)C(O)C([N+](=O)[O-])C(O)C1O` (stereo unspecified): the inhibition of corepressor binding was inactive: 4.95%.

For `O=C(NC(Sc1ccncn1)C(Cl)(Cl)Cl)c1ccccc1` (stereo unspecified), the inhibition of corepressor binding is inactive: -3.03%.

Take `Oc1ccccc1CNc1ccccn1`: the inhibition of corepressor binding was inactive: 14.8%.

Turning to `Nc1cc(N)c2nonc2c1[N+](=O)[O-]`, the inhibition of corepressor binding is inactive: -3.51%.

Take `CC(C)CC(=O)NC(Sc1ccc(Cl)cc1)C(Cl)(Cl)Cl` (stereo unspecified): the inhibition of corepressor binding is inactive: -31.4%.

Turning to `CCc1nc2c(n1)c1c(non1O)c1c2no[n+]1[O-]`, the inhibition of corepressor binding is inactive: -4.57%.

Turning to `O=[N+]([O-])c1cc([N+](=O)[O-])c(CCNc2ccccc2)c([N+](=O)[O-])c1`, the inhibition of corepressor binding is inactive: -10.6%.

As to `Cc1ccc(NP(=O)(Oc2ccccc2)Oc2ccccc2)nc1`, the inhibition of corepressor binding was inactive: -2.42%.

For the compound `O=[N+]([O-])c1cccc2n[nH]nc12`, the inhibition of corepressor binding was inactive: 9.57%.

In the case of `CC(=O)N1C2C3N(C(C)=O)C1C1N(C(C)=O)C(C(N1C(C)=O)N3C(C)=O)N2C(C)=O`, the inhibition of corepressor binding was inactive: -17%.

For `COc1ccc(C2=NCC(CBr)S2)cc1` (stereo unspecified), the inhibition of corepressor binding is inactive: -8.09%.

For `CC1CCN(C(=O)Oc2c(Cl)cc(Cl)c3cccnc23)CC1`, the inhibition of corepressor binding is inactive: -18.9%.

Consider `c1cc(-c2nn[nH]n2)ccc1-c1nn[nH]n1`, for which the inhibition of corepressor binding is inactive: -10.2%.

Take `CN(C)C(=O)OCCc1n(C)cc[n+]1C`: the inhibition of corepressor binding is inactive: -2.81%.

As for `CC(C)c1nc(Nc2ccccc2)n(P(=O)(N(C)C)N(C)C)n1`, the inhibition of corepressor binding was inactive: 8.68%.

For `CC(C)=N/N=C(\N)N[N+](=O)[O-]`, the inhibition of corepressor binding was inactive: -19.7%.

For `CCN(/C(=N/P(=O)(N1CCOCC1)N1CCOCC1)N1CCOCC1)c1ccc(OC)cc1`, the inhibition of corepressor binding is inactive: -9.41%.

With `C[N+]1=C2C=CC=CC=C2SC12C([N+](=O)[O-])=CC([N+](=O)[O-])=C[C-]2[N+](=O)[O-]` (stereo unspecified), the inhibition of corepressor binding was active: 98.4%.

For the compound `Nc1ccc([As](=O)(O)c2ccc(N)cc2)cc1`, the inhibition of corepressor binding was inactive: 1.39%.

On to `O=C(Nc1cc([As](=O)(O)O)ccc1O)c1ccccc1`, for which the inhibition of corepressor binding is inactive: -4.24%.

As for `O=P1(N(CCCl)CCCl)OCCCS1` (stereo unspecified), the inhibition of corepressor binding was inactive: 9.21%.

For the compound `O=C(O)CNc1ccc([As](=O)(O)O)cc1`, the inhibition of corepressor binding was inactive: -6.48%.

On to `COC(=O)C1(C)COP(=O)(Nc2ccccc2)OC1` (stereo unspecified), for which the inhibition of corepressor binding is inactive: -8.04%.

Turning to `O=[N+]([O-])c1cccc(NC2=NCC(CBr)S2)c1` (stereo unspecified), the inhibition of corepressor binding was inactive: 20.9%.

For the compound `O=[N+]([O-])c1ncn(CCn2ncnc2[N+](=O)[O-])n1`, the inhibition of corepressor binding is inactive: -8.61%.

On to `CC(C)(C)C(=O)NC(Sc1ccncn1)C(Cl)(Cl)Cl` (stereo unspecified), for which the inhibition of corepressor binding is inactive: -1.96%.

`C[C@H]1OP(=O)(Oc2ccccc2)[C@H](O)[C@H](O)[C@H]1N=[N+]=[N-]` (stereo partly specified): the inhibition of corepressor binding is inactive: 9.25%.

In the case of `O=P(Nc1nc2ccccc2s1)(c1ccccc1)c1ccccc1`, the inhibition of corepressor binding was inactive: -17.5%.

Consider `O=P(Nc1ccccn1)(c1ccc(Br)cc1)c1ccc(Br)cc1`, for which the inhibition of corepressor binding is inactive: -12.4%.

Turning to `CN(C)C1(CNC(=O)c2ccc(Cl)c(S(N)(=O)=O)c2)CCCCC1`, the inhibition of corepressor binding was inactive: -6.2%.

Turning to `COc1ccc(N)c([N+](=O)[O-])c1[N+](=O)[O-]`, the inhibition of corepressor binding was inactive: -25.2%.

On to `Nc1ccc(CCCCOc2ccccc2)cc1`, for which the inhibition of corepressor binding is inactive: -45.4%.

As to `O=C(OC1CN2CCC1CC2)c1cccc(Cl)c1` (stereo unspecified), the inhibition of corepressor binding was inactive: -5.57%.

As for `C(Cc1nn[nH]n1)Cc1nn[nH]n1`, the inhibition of corepressor binding was inactive: 10.5%.

For `Nc1ccc([As](=O)(O)c2ccc([N+](=O)[O-])cc2)cc1`, the inhibition of corepressor binding is inactive: 14.8%.

Take `O=[As](O)(c1ccccc1)c1ccc(O)cc1`: the inhibition of corepressor binding is inactive: 11.9%.

As to `O=[N+]([O-])c1ccc(O)c(/C=N/Nc2ccc([N+](=O)[O-])cc2[N+](=O)[O-])c1`, the inhibition of corepressor binding is inactive: -25.1%.

For the compound `O=[N+]([O-])c1ncn(CCn2cnc([N+](=O)[O-])n2)n1`, the inhibition of corepressor binding was inactive: 3.86%.

As for `CC(=O)NC(SC(=S)N(C)C)C(Cl)(Cl)Cl` (stereo unspecified), the inhibition of corepressor binding is active: 100%.

As for `c1nnnn1CCn1cnnn1`, the inhibition of corepressor binding was inactive: -5.21%.

Regarding `CC(C)C(=O)NC(Sc1ccccc1)C(Cl)(Cl)Cl` (stereo unspecified), the inhibition of corepressor binding is inactive: 27.9%.

On to `O=P(Nc1nccs1)(c1ccccc1)c1ccccc1`, for which the inhibition of corepressor binding was inactive: -11.8%.

Consider `CC(C)(C)C(=O)NC(Sc1ccccc1)C(Cl)(Cl)Cl` (stereo unspecified), for which the inhibition of corepressor binding was inactive: -17.8%.

As to `CCc1cc(O)c([N+](=O)[O-])c(C)c1[N+](=O)[O-]`, the inhibition of corepressor binding is inactive: -13%.

Turning to `CCOc1ccc(C2=NCC(CBr)S2)cc1` (stereo unspecified), the inhibition of corepressor binding was inactive: -19.1%.

As for `O=P1(Nc2nc3ccc(Cl)cc3s2)COc2ccccc2O1` (stereo unspecified), the inhibition of corepressor binding was inactive: -21.6%.

Consider `CC(=O)Nc1ccc(Oc2c([N+](=O)[O-])cc([N+](=O)[O-])cc2[N+](=O)[O-])cc1`, for which the inhibition of corepressor binding was inactive: 0.01%.

In the case of `CC(=O)Nc1ccc([As](=O)(O)O)c(O)c1`, the inhibition of corepressor binding is inactive: -12.9%.

Turning to `C[C@H]1OP(=O)(Oc2ccccc2)C[C@@H]2O[C@@H]21` (stereo partly specified), the inhibition of corepressor binding was inactive: -7.02%.

For `C[C@@H]1C=CCP(=O)(Oc2ccccc2)O1` (stereo partly specified), the inhibition of corepressor binding was inactive: 2.71%.

For `Cc1ccccc1CN(C)C(=O)COC(=O)C(O)(c1ccccc1)c1ccccc1`, the inhibition of corepressor binding was inactive: 2.37%.

Consider `COC(=O)C1(C)COP(=O)(NCc2ccccc2)OC1` (stereo unspecified), for which the inhibition of corepressor binding was inactive: -7.29%.

Take `CC(=O)c1ccc(N2CC2c2ccncc2)cc1` (stereo unspecified): the inhibition of corepressor binding is inactive: -5.27%.

`N#C/C(=C\c1ccc(N(CCBr)CCBr)cc1)C(N)=O`: the inhibition of corepressor binding is inactive: 0.42%.

As to `O=P1(N(CCCl)CCCl)OCCC2CCCCN21` (stereo unspecified), the inhibition of corepressor binding was inactive: -4.92%.

On to `Cc1ccc(NP(=O)(Oc2cccc(C)c2)Oc2cccc(C)c2)nc1`, for which the inhibition of corepressor binding was inactive: 4.72%.

For `c1ccc(-c2nn[nH]n2)c(-c2nn[nH]n2)c1`, the inhibition of corepressor binding is inactive: -19.6%.

As for `CCNC(=S)/N=C(\N)N[N+](=O)[O-]`, the inhibition of corepressor binding was inactive: -30.6%.

On to `O=C(NC1CCS(=O)(=O)C1)NP(=S)(Oc1ccccc1)Oc1ccccc1` (stereo unspecified), for which the inhibition of corepressor binding was inactive: -32.2%.

For the compound `O=c1c2cc([N+](=O)[O-])ccc2[nH]c2c([N+](=O)[O-])cc([N+](=O)[O-])cc12`, the inhibition of corepressor binding is inactive: -8.9%.

In the case of `CN(C)C(=O)Oc1noc2ccccc12`, the inhibition of corepressor binding was inactive: 5.71%.

In the case of `CC(NC(=O)COC(=O)C(O)(c1ccccc1)c1ccccc1)c1ccccc1` (stereo unspecified), the inhibition of corepressor binding is inactive: -1.1%.

With `Cc1ccccc1OP(=O)(Nc1ccccn1)Oc1ccccc1C`, the inhibition of corepressor binding was inactive: -9.6%.

Turning to `CCC(=O)N1C2C3N(C(=O)CC)C1C1N(C(=O)CC)C(C(N1C(=O)CC)N3C(=O)CC)N2C(=O)CC`, the inhibition of corepressor binding was inactive: -21.8%.

With `O=C(OC1CN2CCC1CC2)c1ccccc1` (stereo unspecified), the inhibition of corepressor binding is inactive: -33%.

For the compound `Cc1ccc(OP(=O)(Nc2ccccn2)Oc2ccc(C)cc2)cc1`, the inhibition of corepressor binding was inactive: -0.23%.

As to `CC(=O)NC(SC(=S)N(CC(C)C)CC(C)C)C(Cl)(Cl)Cl` (stereo unspecified), the inhibition of corepressor binding was inactive: -41.8%.

Take `COC(=O)c1cc2c(s1)N=C(c1ccccc1)N(C)P2(=O)N1CCOCC1` (stereo unspecified): the inhibition of corepressor binding is inactive: -33.8%.
